The test system of experiment [1] is Human pancreatic ductal epithelial cells. Description: qRT-PCR after 2- and 7-day EZH2 inhibitor stimulation of human pancreatic ductal epithelial cells. Particulars: GSK-126 10 μM, EPZ6438 1 μM, Triptolide 20 nM. The format is cell-based. On the technique in general: Real-time PCR tracks product formation cycle by cycle.
Experiment [2] has the same test system. Description: Glucose stimulated insulin secretion assay (ELISA). The experiment is classed as cell-based. Particulars: 2-day stimulation (FIG. 13d); GSK126 10 μM, EPZ6438 1 μM, Triptolide 20 nM; not observed in DMSO control. As to the method: 5×10^5 cells were seeded in 12-well plates and allowed to adhere for 24 hours. Given the relatively high concentration of insulin in KSFM, cells were washed and cultured with CMRL-complete (CMRL 1066supplemented with Antibiotic-Antimycotic [Gibco], and Glutamax [Gibco]) to reduce the background insulin concentration of the ELISA. Cells stimulated with EZH2 inhibitors or vehicle control (DMSO) for 2, or 7 days, following which they were washed with 2.8 mM glucose Krebs Buffer Solution (25 mM HEPES, 115 mM sodium chloride, 24 mM sodium hydrogen carbonate, 5 mM potassium chloride, 1 mM magnesium chloride heptahydrate, 0.1% bovine serum albumin, and 2.5 mM calcium chloride dihydrate made up in deionized water) two times, and incubated for 1 hour to obtain the low glucose (basal) insulin secretion. Next, cells were cultured in 28 mM (High) glucose Krebs Buffer solution and incubated for 1 hour to obtain the glucose stimulated insulin secretion. Supernatant was collected and Ultrasensitive Insulin ELISA (Mercodia) was used to determine the concentration of insulin according to manufacturer's instructions. Fold change of insulin secreted by cells were calculated by adjusting to cells stimulated with EZH2 inhibitors for insulin concentrations compared to control.
A general note: ELISA stands for enzyme-linked immunosorbent assay.

SMILES strings stand for the structures.

Take `CCN(c1cc(-c2ccc(CN3CCOCC3)cc2)cc(C(=O)NCc2c(C)cc(C)[nH]c2=O)c1C)C1CCOCC1` [EPZ-6438, N-[(1,2-Dihydro-4,6-dimethyl-2-oxo-3-pyridinyl)methyl]-5-[ethyl(tetrahydro-2H-pyran-4-yl)amino]-4-methyl-4′-(4-morpholinylmethyl)[1,1′-biphenyl]-3-carboxamide]: the “insulin transcripts, unprocessed heterogenous nuclear form (INS hnRNA)” value in experiment [1] (2 days) is given as “elevations”; in experiment [1] (7 days) it was “maintained”. Moreover, the “insulin concentration after incubation in high-glucose media (28 mM glucose, 1 hour)” value in experiment [2] was “significant elevations”.

Values taken from patent US20250235486A1, “Method of Producing Insulin-Producing Cells” (Monash University, priority 2022, published 2025).
